Reference: ChEMBL document CHEMBL3585345 (ACS Med Chem Lett, 2015)

Target: T1, Aurora kinase A (Homo sapiens, UniProt O14965)
T1 sequence (O14965 whole entry): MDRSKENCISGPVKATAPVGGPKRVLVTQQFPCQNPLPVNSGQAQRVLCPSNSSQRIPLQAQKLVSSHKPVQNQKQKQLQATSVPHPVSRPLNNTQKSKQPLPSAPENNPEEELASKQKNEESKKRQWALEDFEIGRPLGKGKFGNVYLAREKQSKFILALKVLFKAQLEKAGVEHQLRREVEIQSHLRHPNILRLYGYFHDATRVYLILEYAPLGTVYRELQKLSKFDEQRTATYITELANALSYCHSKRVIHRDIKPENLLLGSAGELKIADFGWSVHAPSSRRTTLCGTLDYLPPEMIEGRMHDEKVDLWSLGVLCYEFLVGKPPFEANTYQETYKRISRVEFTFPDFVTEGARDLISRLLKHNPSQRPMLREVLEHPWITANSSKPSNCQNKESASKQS
Assay: Inhibition of aurora kinase A autophosphorylation at T288 in human HCT116 cells by immunofluorescence analysis
Format: cell-based, HCT-116

O=C(O)c1ccc(Nc2ncc3c(n2)-c2ccc(Cl)cc2C(c2ccccc2F)=NC3)cc1
IC50: 170 nM
